Measurements taken from ChEMBL document CHEMBL4602726, “Discovery of the First Vitamin K Analogue as a Potential Treatment of Pharmacoresistant Seizures” (J Med Chem, 2020).

Assay: Toxicity in CF1 mouse assessed as induction of motor impairment during acute (1 hr) observation period by rotarod assay
Conditions: in vivo
Outline: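 Male CF-1 mice, ip dosing in miglyol 840/DMSO (95%/5%), up to 800 mg/kg. Rotarod at 6 rpm done 1 h after dosing, on the same animals just before 6 Hz testing. Falling three times within one minute scored as impaired; animals also inspected visually.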

## CCCC(CCC)C(=O)O [VALPROIC ACID]
  TD50 at 1 h: 390 mg/kg
